# Test results reported in ChEMBL document CHEMBL1128693, “Novel cytotoxic 3'-(tert-butyl) 3'-dephenyl analogs of paclitaxel and docetaxel” (J Med Chem, 1995).
# Assay: Ratio of ED50 in microtubule assembly in presence of paclitaxel to only compound
# Format: functional
# Summary of the method: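 Bovine brain tubulin purified by three temperature-dependent assembly-disassembly cycles plus phosphocellulose-biogel P-10 chromatography, cleared at 27000g for 10 min. Varied compound levels incubated with 10 μM tubulin and 0.5 mM GTP in PEM buffer (0.1 M Pipes pH 6.9, 1 mM MgSO₄, 1 mM EGTA), 37 °C, 15 min. Spun at 40000g for 4 min; supernatant protein by Bradford. ED50 = concentration giving 50% protein retained in supernatant. Ratio against paclitaxel ED50.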
row,SMILES,Ratio
1,CC(=O)O[C@@]12CO[C@@H]1C[C@H](O)[C@@]1(C)C(=O)[C@H](O)C3=C(C)[C@@H](OC(=O)[C@H](O)[C@@H](NC(=O)NC(C)(C)C)C(C)(C)C)C[C@@](O)([C@@H](OC(=O)c4ccccc4)[C@H]21)C3(C)C,0.6
2,CC(=O)O[C@@]12CO[C@@H]1C[C@H](O)[C@@]1(C)C(=O)[C@H](O)C3=C(C)[C@@H](OC(=O)[C@H](O)[C@@H](NC(=O)OCC(C)C)C(C)(C)C)C[C@@](O)([C@@H](OC(=O)c4ccccc4)[C@H]21)C3(C)C,0.54
3,CC(=O)O[C@@]12CO[C@@H]1C[C@H](O)[C@@]1(C)C(=O)[C@H](O)C3=C(C)[C@@H](OC(=O)[C@H](O)[C@@H](NC(=O)OC(C)(C)C)C(C)(C)C)C[C@@](O)([C@@H](OC(=O)c4ccccc4)[C@H]21)C3(C)C,0.38
4,CCCCOC(=O)N[C@H]([C@@H](O)C(=O)O[C@H]1C[C@@]2(O)[C@@H](OC(=O)c3ccccc3)[C@@H]3[C@]4(OC(C)=O)CO[C@@H]4C[C@H](O)[C@@]3(C)C(=O)[C@H](O)C(=C1C)C2(C)C)C(C)(C)C,0.86
5,CC(=O)O[C@@]12CO[C@@H]1C[C@H](O)[C@@]1(C)C(=O)[C@H](O)C3=C(C)[C@@H](OC(=O)[C@H](O)[C@@H](NC(=O)CC(C)(C)C)C(C)(C)C)C[C@@](O)([C@@H](OC(=O)c4ccccc4)[C@H]21)C3(C)C,0.48
6,CC(=O)O[C@@]12CO[C@@H]1C[C@H](O)[C@@]1(C)C(=O)[C@H](O)C3=C(C)[C@@H](OC(=O)[C@H](O)[C@@H](NC(=O)c4ccccc4)C(C)(C)C)C[C@@](O)([C@@H](OC(=O)c4ccccc4)[C@H]21)C3(C)C,1.8
7,CC(=O)O[C@@]12CO[C@@H]1C[C@H](O)[C@@]1(C)C(=O)[C@H](O)C3=C(C)[C@@H](OC(=O)[C@H](O)[C@@H](NC(=O)Nc4ccccc4)C(C)(C)C)C[C@@](O)([C@@H](OC(=O)c4ccccc4)[C@H]21)C3(C)C,0.32
8,CCC(C)(C)OC(=O)N[C@H]([C@@H](O)C(=O)O[C@H]1C[C@@]2(O)[C@@H](OC(=O)c3ccccc3)[C@@H]3[C@]4(OC(C)=O)CO[C@@H]4C[C@H](O)[C@@]3(C)C(=O)[C@H](O)C(=C1C)C2(C)C)C(C)(C)C,0.45
